Consider 13 molecules from US20210221843A1, “EPHA2 AGONISTS AND USES THEREOF” (THE REGENTS OF THE UNIVERSITY OF CALIFORNIA, priority 2018, published 2021).

By UniProt entry, the sequences of proteins in these tests, tags left out. Residues count along the entry.
UniProt P29317, 28-206 limits assumed: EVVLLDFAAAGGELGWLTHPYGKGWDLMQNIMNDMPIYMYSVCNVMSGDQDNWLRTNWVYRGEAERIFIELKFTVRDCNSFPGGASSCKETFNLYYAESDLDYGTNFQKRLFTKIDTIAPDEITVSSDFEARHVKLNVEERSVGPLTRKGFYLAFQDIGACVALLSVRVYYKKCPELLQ
UniProt P29317, 27-200 limits assumed: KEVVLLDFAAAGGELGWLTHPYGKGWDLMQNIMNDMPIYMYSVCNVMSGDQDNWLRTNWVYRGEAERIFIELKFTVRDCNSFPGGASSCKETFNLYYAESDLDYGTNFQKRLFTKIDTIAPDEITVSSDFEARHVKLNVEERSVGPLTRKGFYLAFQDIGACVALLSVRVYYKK

Where two headings read alike, the source gives them in different places.

Series [1] concerns the target EphA2-LBD (Homo sapiens, UniProt P29317). Nature of the series: DELFIA displacement assay (displacement of biotinylated 123B9 from EphA2-LBD). The following applies: Table 1, ± SE of duplicate measurements unless n given.
For series [2] the following is noted: plasma proteases / amino-peptidases; cited from earlier work.
The target in series [3] is T1, 6×His-EphA2-ligand binding domain (LBD) (human, UniProt P29317 27-200, limits assumed).
T1 construct: Expressed and purified 'as we previously reported (30)'; also called EphA2-LBD; EphA2 LBD; not shown: 6xHis tag
In words: DELFIA displacement of 123B9-biotin from 6xHis-EphA2-LBD.

Series [4] deals with T1, 6×His-EphA2-ligand binding domain (LBD). The series is described as above. The source holds these as a separate data set.
For series [5] the target is unchanged. Described as above. The source holds these as a separate data set.
The target is the same in series [6]. Nature of the series: DELFIA displacement assay: the test peptide displaces 6xHis-EphA2-LBD from immobilised 123B9-biotin (competitor), Eu-labelled anti-6xHis antibody read-out.
Series [7] shares this target. Described as above. This is another data set of the same source.
The target is the same in series [8]. Nature of the series: isothermal titration calorimetry. On the technique in general: ITC needs no label: the signal is the heat of the interaction.

Usually IC50 stands for the concentration needed to halve the response being measured. Low readings indicate greater potency, high ones weaker potency. `CC(C)[C@H](NC(=O)[C@H](CO)NC(=O)[C@H](CC(=O)O)NC(=O)[C@@H]1CCCN1C(=O)[C@H](Cc1ccc(O)cc1)NC(=O)[C@H](C)NC(=O)[C@H](CO)NC(=O)[C@@H](N)Cc1ccc(O)cc1)C(=O)N[C@@H](CCC(=O)O)C(=O)N[C@@H](Cc1ccccc1)C(=O)N[C@@H](CCCNC(=N)N)C(=O)N1CCC[C@H]1C(N)=O` [135A8]: the IC50 in series [1] was determined as 36.3 ± 6.2 µM.

`CSCC[C@H](NC(=O)[C@H](Cc1ccccc1)NC(=O)[C@@H]1CCCN1C(=O)[C@@H](NC(=O)[C@H](CO)NC(=O)[C@H](CC(=O)O)NC(=O)[C@@H]1CCCN1C(=O)[C@H](Cc1ccc(O)cc1)NC(=O)[C@H](C)NC(=O)[C@H](CO)NC(=O)[C@@H](N)Cc1ccc(O)cc1)C(C)C)C(=O)N[C@@H](CO)C(N)=O` [135C1] displayed an IC50 in series [1] of 7.5 ± 0.5 µM.

In series [1], `CC(C)[C@H](NC(=O)[C@H](CO)NC(=O)[C@H](CC(=O)O)NC(=O)[C@@H]1CCCN1C(=O)[C@H](Cc1ccc(O)cc1)NC(=O)[C@H](C)NC(=O)[C@H](CO)NC(=O)[C@@H](N)Cc1ccc(O)cc1)C(=O)N1CCC[C@H]1C(=O)N[C@@H](Cc1ccccc1)C(=O)N[C@@H](CCCNC(=N)N)C(=O)N[C@@H](CO)C(N)=O` [135C3] displayed an IC50 of 4.4 ± 0.9 µM.

As to `CSCC[C@H](NC(=O)[C@@H]1CCCN1C(=O)[C@@H](NC(=O)[C@H](CO)NC(=O)[C@H](CC(=O)O)NC(=O)[C@@H]1CCCN1C(=O)[C@H](Cc1ccc(O)cc1)NC(=O)[C@H](C)NC(=O)[C@H](CO)NC(=O)[C@@H](N)Cc1ccc(O)cc1)C(C)C)C(=O)N[C@@H](CCCNC(=N)N)C(=O)N[C@@H](CO)C(N)=O` [135C7], the IC50 in series [1] is 8.8 ± 0.1 µM.

Regarding `CSCC[C@H](NC(=O)[C@@H]1CCCN1C(=O)[C@@H](NC(=O)[C@H](CO)NC(=O)[C@H](CC(=O)O)NC(=O)[C@@H]1CCCN1C(=O)[C@H](Cc1ccc(O)cc1)NC(=O)[C@H](C)NC(=O)[C@H](CO)NC(=O)[C@@H](N)Cc1ccc(O)cc1)C(C)C)C(=O)N[C@@H](CCCNC(=N)N)C(=O)N1CCC[C@H]1C(N)=O` [135C8], the IC50 in series [1] is 8.4 ± 1.2 µM.

Molecule `CSCC[C@H](NC(=O)[C@@H]1CCCN1C(=O)[C@@H](NC(=O)[C@H](CO)NC(=O)[C@H](CC(=O)O)NC(=O)[C@@H]1CCCN1C(=O)[C@H](Cc1ccc(O)cc1)NC(=O)[C@H](C)NC(=O)[C@H](CO)NC(=O)[C@@H](N)Cc1ccc(O)cc1)C(C)C)C(=O)N[C@@H](CCSC)C(=O)N1CCC[C@H]1C(N)=O` [135C9] returned an IC50 in series [1] of 11.8 ± 0.4 µM.

As for `CSCC[C@H](NC(=O)[C@H](Cc1ccccc1)NC(=O)[C@@H]1CCCN1C(=O)[C@@H](NC(=O)[C@H](CO)NC(=O)[C@H](CC(=O)O)NC(=O)[C@@H]1CCCN1C(=O)[C@H](Cc1ccc(O)cc1)NC(=O)[C@H](C)NC(=O)[C@H](CO)NC(=O)[C@@H](N)Cc1ccc(O)cc1)C(C)C)C(=O)N1CCC[C@H]1C(N)=O` [135C10], the IC50 in series [1] was 4.6 ± 0.1 µM. Compared with the last molecule, the IC50 is about 2.6-fold lower.

As for `CC(C)[C@H](NC(=O)[C@H](CO)NC(=O)[C@H](CC(=O)O)NC(=O)[C@@H]1CCCN1C(=O)[C@H](Cc1ccc(O)cc1)NC(=O)[C@H](C)NC(=O)[C@H](CO)NC(=O)[C@@H](N)Cc1ccc(O)cc1)C(=O)N1CCC[C@H]1C(=O)N[C@@H](Cc1ccccc1)C(=O)N[C@@H](CCCCN)C(=O)N1CCC[C@H]1C(N)=O` [135F1], in series [1], the IC50 amounted to 1.5 ± 0.1 µM.

As for `CSCC[C@H](NC(=O)[C@H](CCSC)NC(=O)[C@@H]1CCCN1C(=O)[C@@H](NC(=O)[C@H](CO)NC(=O)[C@H](CC(=O)O)NC(=O)[C@@H]1CCCN1C(=O)[C@H](Cc1ccc(O)cc1)NC(=O)[C@H](C)NC(=O)[C@H](CO)NC(=O)[C@@H](N)Cc1ccc(O)cc1)C(C)C)C(=O)N[C@@H](CO)C(N)=O` [YSA, reference compound], the stability in plasma entry in series [2] is on record as “fairly unstable in plasma with rapid hydrolysis by amino-peptidases”.

B1: 135G10 (peptide)
peptide: LAYPDAVPFRP
modifications: N-terminal 4F,3ClPhOCH2CO- group (counted as position 1); Hyp at 9; 4ClPhe at 10; C-terminal amide
In series [3], B1 registered an IC50 of 0.22 µM. This lies in the sub-micromolar range.

B2: 135H3 (peptide)
peptide: LAYPDAVPFRP
modifications: N-terminal 4F,3ClPhOCH2CO- group (counted as position 1); 3FAbu ((2S)-2-amino-4,4,4-trifluorobutanoic acid) at 7; Hyp at 9; 4ClPhe at 10; C-terminal amide
Turning to B2, the IC50 in series [4] came to 11.2 µM.

In series [5], YSAYPDSVPFR (C-terminal amide (CONH2)) [135C4] had an IC50 of 4.9 µM.

B3: 135G3 (peptide)
peptide: SAYPDSVPFRP
modifications: N-terminal 4F,3ClPhOCH2CO- group (counted as position 1); Hyp at position 9; 4ClPhe at position 10; C-terminal amide
By Kd is commonly meant the constant that tells how readily two partners part at equilibrium. As to B3, the “IC50 (read off the curve)” value in series [6] and in series [7] was about 0.5 µM each time. Also, the Kd in series [8] was about 0.76 µM.
